According to patent publication US7338807 (US Dept. of Health and Human Services, dated 2008):

How the values were obtained:
Assay in all cases: GST pull-down on GSH-beads, 35S-labelled in vitro-translated protein
[1] = biological target: T1, Rad3 protein, in vitro-translated, 35S-labelled (yeast, UniProt P06839 1-778, [35S]Cysteine label)
T1 construct: also called yeast Rad3
T1 sequence (looked up): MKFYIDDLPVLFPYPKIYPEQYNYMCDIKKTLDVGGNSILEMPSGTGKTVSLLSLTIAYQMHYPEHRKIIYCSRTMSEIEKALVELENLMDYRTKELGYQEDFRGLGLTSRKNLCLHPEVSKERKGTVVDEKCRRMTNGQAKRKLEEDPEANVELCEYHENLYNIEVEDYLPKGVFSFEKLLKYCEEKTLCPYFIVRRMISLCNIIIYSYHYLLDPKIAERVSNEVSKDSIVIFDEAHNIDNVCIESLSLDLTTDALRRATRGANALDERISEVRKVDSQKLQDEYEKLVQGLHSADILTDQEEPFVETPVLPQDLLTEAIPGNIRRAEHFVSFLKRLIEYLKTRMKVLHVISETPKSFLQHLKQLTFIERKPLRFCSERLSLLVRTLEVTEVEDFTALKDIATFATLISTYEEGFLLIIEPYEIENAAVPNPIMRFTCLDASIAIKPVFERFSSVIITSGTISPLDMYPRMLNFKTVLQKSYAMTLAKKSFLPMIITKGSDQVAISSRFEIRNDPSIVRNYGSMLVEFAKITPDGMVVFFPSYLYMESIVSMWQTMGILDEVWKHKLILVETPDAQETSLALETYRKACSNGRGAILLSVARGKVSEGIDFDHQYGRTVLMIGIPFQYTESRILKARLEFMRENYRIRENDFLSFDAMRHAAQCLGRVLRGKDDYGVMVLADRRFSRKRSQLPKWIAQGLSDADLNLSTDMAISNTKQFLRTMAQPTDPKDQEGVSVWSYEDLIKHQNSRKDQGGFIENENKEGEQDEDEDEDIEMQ

[2] = biological target: T2, XPD protein, in vitro-translated, 35S-labelled (human, UniProt P18074 1-760, [35S]Cysteine label)
T2 sequence (looked up): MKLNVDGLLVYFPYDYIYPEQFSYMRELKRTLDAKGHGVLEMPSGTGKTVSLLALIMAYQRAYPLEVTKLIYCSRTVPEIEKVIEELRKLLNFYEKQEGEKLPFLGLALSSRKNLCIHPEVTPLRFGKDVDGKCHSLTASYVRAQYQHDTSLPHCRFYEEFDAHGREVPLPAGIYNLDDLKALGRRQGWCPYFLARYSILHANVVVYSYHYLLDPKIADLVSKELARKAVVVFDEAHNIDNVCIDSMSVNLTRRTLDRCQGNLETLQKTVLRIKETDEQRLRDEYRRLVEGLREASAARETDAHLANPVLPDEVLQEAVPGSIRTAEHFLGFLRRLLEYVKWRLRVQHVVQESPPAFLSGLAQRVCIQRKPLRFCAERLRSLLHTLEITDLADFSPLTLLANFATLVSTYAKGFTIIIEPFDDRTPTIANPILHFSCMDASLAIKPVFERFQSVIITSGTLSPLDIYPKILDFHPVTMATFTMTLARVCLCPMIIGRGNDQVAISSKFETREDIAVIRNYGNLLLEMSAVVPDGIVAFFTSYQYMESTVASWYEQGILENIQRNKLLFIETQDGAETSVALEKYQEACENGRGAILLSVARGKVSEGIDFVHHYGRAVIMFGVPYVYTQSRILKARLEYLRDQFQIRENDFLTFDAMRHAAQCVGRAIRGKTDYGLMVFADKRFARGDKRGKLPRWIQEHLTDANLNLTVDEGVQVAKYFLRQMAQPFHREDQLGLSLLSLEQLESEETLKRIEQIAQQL

[3] = biological target: T3, XPB protein, full length, in vitro-translated, 35S-labelled (human, UniProt P19447 1-782, [35S]Cysteine label)
T3 construct: Full length XPB translated in vitro from plasmid pZAP10; also called wild-type XPB
T3 sequence: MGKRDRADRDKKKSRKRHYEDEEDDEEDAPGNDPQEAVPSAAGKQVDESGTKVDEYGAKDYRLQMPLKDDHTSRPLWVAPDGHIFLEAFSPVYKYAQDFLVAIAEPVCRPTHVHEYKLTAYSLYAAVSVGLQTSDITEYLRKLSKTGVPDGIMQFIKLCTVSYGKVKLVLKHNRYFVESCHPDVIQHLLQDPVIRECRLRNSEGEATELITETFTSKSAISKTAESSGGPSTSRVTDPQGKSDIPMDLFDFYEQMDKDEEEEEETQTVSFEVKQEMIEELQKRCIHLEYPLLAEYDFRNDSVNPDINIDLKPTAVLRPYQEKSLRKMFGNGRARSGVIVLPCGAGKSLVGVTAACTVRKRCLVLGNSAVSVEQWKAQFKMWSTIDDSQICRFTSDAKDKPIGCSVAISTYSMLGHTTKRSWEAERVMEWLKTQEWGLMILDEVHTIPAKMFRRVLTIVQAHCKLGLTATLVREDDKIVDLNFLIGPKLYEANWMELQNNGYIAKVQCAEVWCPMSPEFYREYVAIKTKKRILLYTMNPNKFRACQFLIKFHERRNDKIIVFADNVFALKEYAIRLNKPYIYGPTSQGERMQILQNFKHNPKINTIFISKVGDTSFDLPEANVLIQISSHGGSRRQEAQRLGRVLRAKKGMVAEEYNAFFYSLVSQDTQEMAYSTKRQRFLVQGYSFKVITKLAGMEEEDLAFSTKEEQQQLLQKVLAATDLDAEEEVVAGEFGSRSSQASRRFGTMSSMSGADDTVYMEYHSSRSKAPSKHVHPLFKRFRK

[4] = biological target: T4, CSB protein, in vitro-translated, 35S-labelled (human, [35S]Cysteine label)
T4 construct: also called CSR

- binding result [1]: no binding (tested: 4 µg of GST)
- binding result [2]: no binding (tested: 4 µg of GST)
- binding result [3]: no binding (tested: 4 µg of GST)
- binding result [4]: no binding (tested: 4 µg of GST)
B1: GST (glutathione S-transferase alone) (other, UniProt P08515 1-218, looked up)
chain: MSPILGYWKIKGLVQPTRLLLEYLEEKYEEHLYERDEGDKWRNKKFELGLEFPNLPYYIDGDVKLTQSMAIIRYIADKHNMLGGCPKERAEISMLEGAVLDIRYGVSRIAYSKDFETLKVDFLSKLPEMLKMFEDRLCHKTYLNGDHVTHPDFMLYDALDVVLYMDPMCLDAFPKLVCFKKRIEAIPQIDKYLKSSKYIAWPLQGWQATFGGGDHPPK
notes: Control loaded on GSH-beads; also called GST alone
